Measurements published in BindingDB's records for doi:10.1016/0024-3205(76)90375-1 (1976).
“And” between values parts separate entries of the source, which are not always exact repeats. Equal values may be shown once.

The chains behind the UniProt entries cited, without tags or fusion partners.
UniProt P32305, whole entry: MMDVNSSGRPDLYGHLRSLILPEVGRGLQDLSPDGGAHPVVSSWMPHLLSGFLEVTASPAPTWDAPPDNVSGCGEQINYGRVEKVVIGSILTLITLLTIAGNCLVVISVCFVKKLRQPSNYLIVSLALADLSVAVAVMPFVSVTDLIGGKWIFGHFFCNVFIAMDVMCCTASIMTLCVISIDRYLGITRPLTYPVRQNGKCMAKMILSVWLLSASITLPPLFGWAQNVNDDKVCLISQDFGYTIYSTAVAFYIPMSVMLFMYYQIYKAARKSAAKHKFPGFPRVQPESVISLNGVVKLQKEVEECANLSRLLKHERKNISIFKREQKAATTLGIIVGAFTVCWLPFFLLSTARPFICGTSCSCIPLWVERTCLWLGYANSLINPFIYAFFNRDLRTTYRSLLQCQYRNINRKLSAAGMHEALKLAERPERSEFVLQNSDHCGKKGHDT

Biological target: 5-hydroxytryptamine receptor 7 (Rattus norvegicus, UniProt P32305)

Compound | Ki
CCN(CC)C(=O)[C@@H]1C=C2c3cccc4[nH]cc(c34)C[C@H]2N(C)C1 [(4R,7R)-N,N-diethyl-6-methyl-6,11-diazatetracyclo[7.6.1.0^{2,7}.0^{12,16}]hexadeca-1(16),2,9,12,14-pentaene-4-carboxamide] | 380 nM and 270 nM
Clc1cccc(Cl)c1N=C1NCCN1 [2-(2,6-dichloroanilino)-2-imidazoline] | 580 nM
